Results on one compound are retold here after ChEMBL document CHEMBL5331113 (J Med Chem, 2023).

For the experiment, the target named is T1, Succinate receptor 1 (Mus musculus) (UniProt Q99MT6).
T1 sequence (whole entry): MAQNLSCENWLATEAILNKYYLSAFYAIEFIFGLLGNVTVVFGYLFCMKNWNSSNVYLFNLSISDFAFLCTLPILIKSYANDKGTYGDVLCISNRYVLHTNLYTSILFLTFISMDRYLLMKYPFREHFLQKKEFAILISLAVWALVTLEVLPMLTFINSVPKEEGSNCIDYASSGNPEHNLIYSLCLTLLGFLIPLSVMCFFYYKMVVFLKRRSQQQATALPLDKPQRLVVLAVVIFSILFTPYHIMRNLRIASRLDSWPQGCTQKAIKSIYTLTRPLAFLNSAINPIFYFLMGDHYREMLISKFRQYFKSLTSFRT
Nature of the experiment: Binding affinity to N-terminal Nluc-tagged mouse succinate receptor 1 expressed in human Flp-In-T-REx-293 cells upto 10 uM incubated for 5 mins by BRET assay. It is filed as cell-based. Background: Bioluminescence resonance energy transfer reports proximity on the nanometre scale.

Calls of active or inactive are those of the source. The rule behind the calls is not given here.

On to `Cc1cc(CN2CCN(CCNC3C=CC([N+](=O)[O-])c4nonc43)CC2)ccc1-c1cccc(C(=O)Nc2ccccc2CC(=O)O)c1` (stereo unspecified), for which the outcome was inactive.
